Data on 1 compound can be found in patent publication US20080113014A1, “Method for Screening for Compounds Safe for Gastric Mucosa” (LTT BIO-PHARMA CO., LTD., priority 2004, published 2008).

This data set is described as follows: Calcein leakage from calcein-encapsulating liposome in the presence of NSAIDs (membrane toxicity). The note with it: 30° C., 10 min, fluorescence at 520 nm; order among the five NSAIDs of the same figure.

SMILES strings stand for the structures.

In the case of `CS(=O)(=O)Nc1ccc([N+](=O)[O-])cc1Oc1ccccc1` [nimesulide], the “calcein leakage from the liposome (membrane toxicity), rank order” value was “decreased in the same order”.
